Data from US7629376B2, “3-substituted-5- and 6-aminoalkyl indole-2-carboxylic acid amides and related analogs as inhibitors of casein kinase I” (Aventis Pharmaceuticals Inc., priority 2004, dated 2009).
Where two headings read alike, the source gives them in different places.

By UniProt entry, the sequences of proteins in these tests, tags left out. Where a name states a change or a piece, a line headed by the entry shows the natural chain unless it says otherwise.
UniProt P49674: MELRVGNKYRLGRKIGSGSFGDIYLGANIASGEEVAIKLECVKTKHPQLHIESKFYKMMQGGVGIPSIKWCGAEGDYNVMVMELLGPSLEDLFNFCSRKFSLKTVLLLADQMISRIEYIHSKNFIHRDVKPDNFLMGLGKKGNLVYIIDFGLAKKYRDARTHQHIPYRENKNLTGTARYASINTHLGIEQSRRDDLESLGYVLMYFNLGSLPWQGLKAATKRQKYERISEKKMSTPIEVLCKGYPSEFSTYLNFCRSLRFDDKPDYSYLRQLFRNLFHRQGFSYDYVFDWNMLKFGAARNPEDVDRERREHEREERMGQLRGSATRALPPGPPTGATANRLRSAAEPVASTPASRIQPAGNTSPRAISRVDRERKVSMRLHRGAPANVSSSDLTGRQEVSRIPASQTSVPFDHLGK

Target: T1, casein kinase 1ε (Homo sapiens, UniProt P49674)
T1 construct: made in house
Assay: Casein Kinase Epsilon 33P-ATP Filter Plate Assay for Screening CK1ε Inhibitors
Assay type: biochemical

[1] = phosphorylation of dephosphorylated casein, five concentrations in duplicate, 10 μM cold ATP, room temperature 2 hours, read-out: Casein Kinase Iε 33P-ATP Filter Plate Assay Ki (μM) (*denotes average of 2 or more determinations)

Molecule | Ki [µM] | Ki [1] [µM]
3-(3-Chlorophenylsulfanyl)-5-methylaminomethyl-1H-indole-2-carboxylic acid amide |  | 0.14
3-(3-Fluorophenylsulfanyl)-5-methylaminomethyl-1H-indole-2-carboxylic acid amide [Ie] |  | 0.34
COc1cc(C=CCNCc2ccc3c(Sc4ccccc4)c(C(N)=O)[nH]c3c2)ccc1O [IIaq, 6-{[3-(4-Hydroxy-3-methoxyphenyl)allylamino]methyl}-3-phenylsulfanyl-1H-indole-2-carboxylic acid amide] | 0.14 | 

More lines, main results first:

Ki [µM] | Molecule | Ki [1] [µM]
0.34 | NC(=O)c1[nH]c2ccc(CNCC(O)CO)cc2c1Sc1ccccc1 (centres unmarked) [Iy, 5-[(2,3-Dihydroxypropylamino)methyl]-3-phenylsulfanyl-1H-indole-2-carboxylic acid amide] | 
0.14 | CNCc1ccc2[nH]c(C(N)=O)c(Sc3ccccc3)c2c1 [Ic, 5-Methylaminomethyl-3-phenylsulfanyl-1H-indole-2-carboxylic acid amide] | 
